Drawing on US11635434B2, “Betaretrovirus epitopes and related methods of use” (priority 2018, dated 2023), this text covers tolerability for one substance.

The data set concerns human betaretrovirus (HBRV). Put plainly: Combination antiretroviral therapy (cART) in PBC patients. The settings on record: randomized controlled trial, terminated early. The class given is in vivo. An excerpt:
Ursodeoxycholic acid (UDCA) is often considered the standard of care for PBC treatment and acts as a choleretic agent to ameliorate the toxic effects of bile within the liver. […] Combination anti-retroviral therapy (cART) may also provide potential adjunctive therapy to UDCA non-responders. […] Those able to tolerate cART, however, developed marked improvement in hepatic biochemistry and HBRV levels in the open label extension study.
Referring to FIG. 1B, this LT recipient developed severe recurrent PBC unresponsive to UDCA and changes in immunosuppression.

Consider lopinavir-ritonavir, for which the tolerability result is reported as “poor tolerability”.
